{
  "source": "PubChem BioAssay AID2284382",
  "about": "(EPA ToxCast)",
  "note": "The list shows a part of the results, in another mix than the full data. Records with an inconclusive call do not appear. Activity calls are given as the source filed them. How the source made its calls: active means hit-call score of the fitted dose curve at least 0.9, where 1 is the maximum; inconclusive means response in the unintended direction; inactive means score below 0.9.",
  "data": [
    {"assay": "CCTE_Mundy_HCI_iCellGABA_NOG_NeuriteLength: CCTE's Neurite Outgrowth Assay in iCellGABA cells for Neurite Length, Mundy Lab", "experimental": "CCTE_Mundy_HCI_iCellGABA_NOG is a multiplexed, cell-based-readout assay that uses iCell GABANeurons from FUJIFILM Cellular Dynamics, Inc. (FCDI), human GABAergic enriched neurons derived from induced pluripotent stem (iPS) cells, with measurements taken at 50.33 hours after chemical dosing in a microplate: 96-well plate.CCTE_Mundy_HCI_iCellGABA_NOG_NeuriteLength is one of four components of the CCTE_Mundy_HCI_iCellGABA_NOG assay. It measures neurite outgrowth related to neurite length using High Content Imaging of fluorescently labelled markers.Data from the assay component CCTE_Mundy_HCI_iCellGABA_NOG_NeuriteLength was analyzed at the endpoint CCTE_Mundy_HCI_iCellGABA_NOG_NeuriteLength in the positive analysis fitting direction relative to DMSO as the negative control and baseline of activity. Using a type of morphology reporter, loss-of-signal activity can be used to understand developmental effects.\nExposure starts 2 hours post-plating by adding 10 ul of the working solution to 90 ul of media in the wells for a 1/10 dilution. […] A Cellomics ArrayScan VTi HCS Reader is used for automated image acquisition and analysis of neurite outgrowth.", "values": [
      {"compound": "CC(C)OP(=S)(OC(C)C)SCCNS(=O)(=O)c1ccccc1", "AC50": "active: 32.5 µM"}
    ]}
  ]
}
